Measured values taken from patent US11091476B2 (dated 2021).

Protein sequences, listed by entry. Tags and fused reporters are not part of them.
UniProt Q00534, whole entry: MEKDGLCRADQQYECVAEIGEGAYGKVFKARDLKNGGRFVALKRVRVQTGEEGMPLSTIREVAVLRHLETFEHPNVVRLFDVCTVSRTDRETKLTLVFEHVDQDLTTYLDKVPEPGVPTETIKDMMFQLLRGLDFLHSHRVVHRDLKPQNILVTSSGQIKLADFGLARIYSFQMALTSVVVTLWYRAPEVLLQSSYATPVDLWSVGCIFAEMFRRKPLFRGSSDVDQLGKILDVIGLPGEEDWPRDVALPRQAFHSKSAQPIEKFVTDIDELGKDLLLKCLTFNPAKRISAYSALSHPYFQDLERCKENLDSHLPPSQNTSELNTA

Molecular target: CDK6/CyclinD3 (Homo sapiens (Human), UniProt Q00534)
Assay: CDK kinase inhibitory activity, ADP-Glo Kinase Assay, CDK6/CyclinD3
Type: biochemical
Details: ratio of IC50s

For CC1=Nc2c(F)cc(-c3nc(Nc4ccc(C5CCN(C)CC5)cn4)ncc3F)cc2C12CCCC2 [Example 17, 5-Fluoro-4-(7′-fluoro-2′-methylspiro[cyclopentane-1,3′-indol]-5′-yl)-N-(5-(1-methylpiperidin-4-yl)pyridin-2-yl)pyrimidine-2-amino], which CDK9/CDK6 (selectivity for CDK6 over CDK9) is on record?
The CDK9/CDK6 was 7.33.

And the Pim-1/CDK6 (selectivity for CDK6 over Pim-1)?
The Pim-1/CDK6 was 52.43.
